Results on 1 molecule are retold here after ChEMBL document CHEMBL4765389, “Antimicrobial and anti-inflammatory activities of short dodecapeptides derived from duck cathelicidin: Plausible mechanism of bactericidal action and endotoxin neutralization” (Eur J Med Chem, 2020).

Converted amounts (≈) assume the structure as drawn.

One test relates to Bacillus subtilis. Put plainly: Antibacterial activity against Bacillus subtilis KCTC 3068 assessed as reduction in bacterial growth incubated for 24 hrs by CLSI based broth dilution method. The test is classed as functional. The following applies: read-out: MIC100. (Dilution methods test growth across graded concentrations, often in twofold steps.)
A further test concerns Salmonella typhimurium. Briefly: Antibacterial activity against Salmonella typhimurium KCTC 1926 assessed as reduction in bacterial growth incubated for 24 hrs by CLSI based broth dilution method. The conditions noted are these: Salmonella enterica, read-out: MIC100. The test is classed as functional, Salmonella enterica subsp. enterica serovar Typhimurium.
The subject of test [1] is Staphylococcus aureus. Put plainly: Antibacterial activity against Staphylococcus aureus KCTC 1621 assessed as reduction in bacterial growth incubated for 24 hrs by CLSI based broth dilution method. The test is classed as functional. The following applies: read-out: MIC100.
The subject of a further test is Pseudomonas aeruginosa. Briefly: Antibacterial activity against Pseudomonas aeruginosa KCTC 1637 assessed as reduction in bacterial growth incubated for 24 hrs by CLSI based broth dilution method. The conditions noted are these: read-out: MIC100. The test is classed as functional.
Test [2] concerns Staphylococcus aureus. Briefly: Antibacterial activity against methicillin-resistant Staphylococcus aureus CCARM 3089 assessed as reduction in bacterial growth incubated for 24 hrs by CLSI based broth dilution method. Format: functional. The following applies: read-out: MIC100.
A further test has as its system Escherichia coli. Briefly: Antibacterial activity against Escherichia coli KCTC 1682 assessed as reduction in bacterial growth incubated for 24 hrs by CLSI based broth dilution method. The test is classed as functional. The conditions noted are these: read-out: MIC100.
The test system of test [3] is Staphylococcus epidermidis. Briefly: Antibacterial activity against Staphylococcus epidermidis KCTC 1917 assessed as reduction in bacterial growth incubated for 24 hrs by CLSI based broth dilution method. The test is classed as functional. The following applies: read-out: MIC100.
Test [4] concerns Staphylococcus aureus. Put plainly: Antibacterial activity against methicillin-resistant Staphylococcus aureus CCARM 3095 assessed as reduction in bacterial growth incubated for 24 hrs by CLSI based broth dilution method. The test is classed as functional. The following applies: read-out: MIC100.
Test [5] relates to Staphylococcus aureus. Briefly: Antibacterial activity against methicillin-resistant Staphylococcus aureus CCARM 3090 assessed as reduction in bacterial growth incubated for 24 hrs by CLSI based broth dilution method. Format: functional. The following applies: read-out: MIC100.

Regarding `CC[C@H](C)[C@H](NC(=O)CN)C(=O)NCC(=O)N[C@@H](C)C(=O)N[C@H](C(=O)N[C@@H](CC(C)C)C(=O)N[C@@H](CCCCN)C(=O)N[C@H](C(=O)N[C@@H](CC(C)C)C(=O)N[C@H](C(=O)N[C@H](C(=O)NCC(=O)N[C@@H](CC(C)C)C(=O)N1CCC[C@H]1C(=O)N[C@@H](C)C(=O)N[C@@H](CC(C)C)C(=O)N[C@H](C(=O)N[C@@H](CO)C(=O)N[C@@H](Cc1c[nH]c2ccccc12)C(=O)N[C@H](C(=O)N[C@@H](CCCCN)C(=O)N[C@@H](CCCNC(=N)N)C(=O)N[C@@H](CCCCN)C(=O)N[C@@H](CCCNC(=N)N)C(=O)N[C@@H](CCC(N)=O)C(=O)N[C@@H](CCC(N)=O)C(N)=O)[C@@H](C)CC)[C@@H](C)CC)[C@@H](C)O)[C@@H](C)O)C(C)C)C(C)C` [MELITTIN], the MIC with Bacillus subtilis was 4 µM (≈ 11.4 µg/mL); in the test on Salmonella typhimurium, 2 µM (≈ 5.69 µg/mL); in the test on Staphylococcus aureus [1] it was 4 µM (≈ 11.4 µg/mL); in the test with Pseudomonas aeruginosa it was 4 µM (≈ 11.4 µg/mL); in the test on Staphylococcus aureus [2] it was 32 µM (≈ 91.1 µg/mL); in the test with Escherichia coli, 16 µM (≈ 45.5 µg/mL). In addition, the MIC in [3] stood at 8 µM (≈ 22.8 µg/mL); in the test with Staphylococcus aureus [4], 32 µM (≈ 91.1 µg/mL); with Staphylococcus aureus [5] it was 16 µM (≈ 45.5 µg/mL).
